58 molecules from PubChem BioAssay AID504357 (The Scripps Research Institute Molecular Screening Center, 2011) can be followed below.

Amino acid sequences for entries named in this document (tags omitted).
UniProt P35372, whole entry, looked up: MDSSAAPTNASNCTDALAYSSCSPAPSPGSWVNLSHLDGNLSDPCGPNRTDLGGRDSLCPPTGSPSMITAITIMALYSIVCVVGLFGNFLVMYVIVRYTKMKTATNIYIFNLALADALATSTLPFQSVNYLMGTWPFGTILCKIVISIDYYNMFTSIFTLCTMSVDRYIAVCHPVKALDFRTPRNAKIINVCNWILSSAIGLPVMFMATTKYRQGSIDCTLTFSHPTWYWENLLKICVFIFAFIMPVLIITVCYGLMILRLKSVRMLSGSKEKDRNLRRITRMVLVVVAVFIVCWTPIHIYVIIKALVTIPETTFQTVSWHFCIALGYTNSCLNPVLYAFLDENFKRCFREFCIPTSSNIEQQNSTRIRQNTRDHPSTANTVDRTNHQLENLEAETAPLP
UniProt P41143, whole entry, looked up: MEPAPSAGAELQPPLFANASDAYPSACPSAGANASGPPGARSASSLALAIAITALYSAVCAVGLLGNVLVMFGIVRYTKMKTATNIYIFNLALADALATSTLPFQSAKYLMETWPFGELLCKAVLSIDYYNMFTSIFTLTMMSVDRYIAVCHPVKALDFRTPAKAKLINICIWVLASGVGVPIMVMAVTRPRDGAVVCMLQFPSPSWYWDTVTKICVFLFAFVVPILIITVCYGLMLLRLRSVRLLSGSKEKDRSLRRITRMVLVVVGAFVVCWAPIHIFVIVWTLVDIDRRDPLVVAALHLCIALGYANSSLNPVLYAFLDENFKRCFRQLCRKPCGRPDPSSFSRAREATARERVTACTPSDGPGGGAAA

This is a selection; strong and weak results do not stand in their true shares. Active and inactive are the calls of the source. No stated cut-off is given here; in the data, active means inhibition above about 22% (passing the limit was not always enough); inactive means the rest.

The target in this assay is Mu-type opioid receptor (Homo sapiens) + Delta-type opioid receptor (Homo sapiens) (UniProt P35372+P41143). The assay can be described thus: OPRM1-OPRD1 heterodimer inverse agonism – cell-based, luminescence, primary screen (AID 504357).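 Further: 0% = cells with DMSO and 100% = wells without cells with DMSO.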 Particulars: cell-based MOR-DOR heterodimer luminescence, at 9.3 µM, active compounds read high.
On to `COC(=O)c1ccc(NC(=O)Cn2c(-c3nonc3N)nc3ccccc32)cc1`, for which the inhibition was inactive: 13.5%.

As for `Cc1ccc(OCC(O)Cn2c(=N)n(CCN3CCOCC3)c3ccccc32)cc1` (stereo not drawn), the inhibition is inactive: 3.57%. Under `N=c1n(CCN2CCCCC2)c2ccccc2n1CC(O)COc1ccccc1` (stereo not drawn) stands inactive: 7.8%; under `Cn1c(=O)[nH]c(=O)c2c1nc(CN1CCN(Cc3ccccc3)CC1)n2CC(N)=O`, inactive: 14%. Under `Cc1csc2ncnc(NC3CCN(Cc4ccccc4)CC3)c12` stands inactive: 1.52%; under `CCc1nc2c(n1)c1c(non1O)c1c2no[n+]1[O-]`, inactive: -34.7%. Under `O=[N+]([O-])c1cc([N+](=O)[O-])c(CCNc2ccccc2)c([N+](=O)[O-])c1` stands inactive: -35.6%; under `COC(=O)c1ccccc1NC(=O)Cn1cnc2cc(C)c(C)cc21`, inactive: -2.42%. As for `CSCC[C@H](NC(=O)N1CCn2c1nc1ccccc12)C(=O)N[C@H](Cc1ccccc1)C(=O)O`, the inhibition is inactive: 16%.

`Cc1nc2ccccc2n1CC(=O)N/N=C/c1cccs1`: the inhibition was inactive: 13.7%. Consider `O=[N+]([O-])c1ccc(NC2CCN(Cc3ccccc3)CC2)c([N+](=O)[O-])c1`, for which the inhibition is inactive: 3.75%.

As for `CC1CC(C)CN(C(=O)Cn2c(-c3nonc3N)nc3ccccc32)C1` (stereo not drawn), the inhibition was inactive: 8.58%. For `Cc1ccc(NP(=O)(Oc2ccccc2)Oc2ccccc2)nc1`, the inhibition is inactive: 14.8%. Regarding `Nc1nonc1-c1nc2ccccc2n1CC(=O)N1CCCCC1`, the inhibition is inactive: -0.2%. The value for `Cc1ccc(C)c(CN2CCC(n3nnc4cc(F)ccc43)CC2)c1` was inactive: -249%; that for `CC1CCCCC1NC(=O)Cn1cnc2c1c(=O)n(C)c(=O)n2C` (stereo not drawn) was inactive: 1.03%. For `Cc1ccccc1Cn1c(=O)c2c(nc3n2CCN3Cc2ccco2)n(C)c1=O`, the inhibition is inactive: 19.8%.

For the molecule `CCOc1ccccc1OCC(=O)NNC(=O)Cn1cnc2c1c(=O)n(C)c(=O)n2C`, the inhibition is inactive: -3.9%. The value for `O=[N+]([O-])c1cccc2n[nH]nc12` was inactive: 15.3%; that for `Cn1ncc([N+](=O)[O-])c1C(=O)Nc1nc2ccccc2n1CCN1CCCCC1` was inactive: 10.9%.

On to `CC(=O)N1C2C3N(C(C)=O)C1C1N(C(C)=O)C(C(N1C(C)=O)N3C(C)=O)N2C(C)=O`, for which the inhibition is inactive: 15.5%. Under `CC#CCCC(=O)N1C=Cc2ccccc2C1C#N` (stereo not drawn) stands inactive: 10.9%. Under `N#CCCNC(=O)Cn1c(COc2ccc(Cl)cc2)nc2ccccc21` stands inactive: 3.29%; under `Cn1c(=O)[nH]c(=O)c2c1nc1n2CCN1Cc1ccccc1`, inactive: 13.7%. The value for `COC(=O)c1sccc1NC(=O)Cn1cnc2c1c(=O)n(C)c(=O)n2C` was inactive: -8.68%; that for `Nc1ccccc1CNc1nc(NCCO)nc2c1ncn2CCN1CCOCC1` was inactive: -8.12%; that for `Cn1c(=O)c2c(ncn2CC(=O)Nc2ccccc2)n(C)c1=O` was inactive: -0.47%. Consider `NC(=O)CC(NC(=O)c1ccccc1)c1ccc(NC2CCN(Cc3ccccc3)CC2)c([N+](=O)[O-])c1` (stereo not drawn), for which the inhibition is inactive: 6.77%. In the case of `O=C(Cn1c(NCCO)nc2ccccc21)N1CCN(Cc2ccccc2)CC1`, the inhibition is inactive: 6.18%. Under `N=c1n(CCN2CCCCC2)c2ccccc2n1CC(O)c1ccco1` (stereo not drawn) stands inactive: 18.1%. Under `Cn1c(=O)c2c(ncn2CC(=O)N2CCN(c3ccccc3F)CC2)n(C)c1=O` stands inactive: 14.6%. The value for `CSc1nc(N)nc2c1ncn2CC(=O)NCCCc1ccccc1` was inactive: 10.4%. Turning to `CCOC(=O)CSc1nc2ccccc2n1CC(=O)N1CCN(c2ccccc2)CC1`, the inhibition was inactive: 16.5%. Turning to `c1ccc(CN2CCC3(CC2)Nc2ccccc2CO3)cc1`, the inhibition was inactive: -8.59%. Take `Cc1cc(NC(=O)CSc2nc3ccccc3n2CC(=O)N2CC(C)CC(C)C2)no1` (stereo not drawn): the inhibition was inactive: 3.04%. With `Cn1c(=O)c2c(nc(Cl)n2CC(=O)NC2(C#N)CCCCC2)n(C)c1=O`, the inhibition is inactive: 8.99%. Under `N#CCC(=O)N/N=C\c1cc(Br)ccc1OC/C=C/c1ccccc1` stands inactive: 0.98%. The value for `Cc1ccc(SCc2nc3ccccc3n2CC(=O)Nc2ccccc2)cc1` was inactive: -4.99%; that for `Cc1ccc2c(c1)C1CN(C)CCC1N2S(=O)(=O)c1ccc(Oc2ccc([N+](=O)[O-])cc2)cc1` (stereo not drawn) was inactive: -11.5%. Under `COc1cc(NC(=O)Cn2cnc3c(SC)nc(N)nc32)cc(OC)c1OC` stands inactive: -5.58%. As to `CCC(=O)Nc1cccc(C(=O)/C=C/c2cccs2)c1`, the inhibition was inactive: -12.9%. The value for `CC(=O)N1CCc2cc(S(=O)(=O)NC(CC(C)C)C(=O)N3CCn4c3nc3ccccc34)ccc21` (stereo not drawn) was inactive: -1.01%; that for `COc1ccc(C2=NCC(CBr)S2)cc1` (stereo not drawn) was inactive: 3.17%. As for `CCN(CC)CCn1c(=N)n(CCO)c2ccccc21`, the inhibition is inactive: 10.7%.

For the molecule `Cn1c(=O)c2c(ncn2CC(=O)N/N=C/c2ccco2)n(C)c1=O`, the inhibition was inactive: 7.62%. Under `Cn1c(=O)c2c(nc(Sc3nc4ccccc4n3CC(=O)N3CCCCC3)n2C)n(C)c1=O` stands inactive: -0.85%; under `O=C(NC1CCCCC1)N1CCC(n2c(=O)[nH]c3ccccc32)CC1`, inactive: -16%. The value for `C[C@H](O)[C@@H]1C(=O)N2CCc3ccc(-c4ccccc4)cc3[C@@H]2C[C@@H]1N(C)C(=O)Nc1cc(Cl)cc(Cl)c1` was inactive: -5.64%. Under `CCC(C)[C@H](NC(=O)N1CCn2c1nc1ccccc12)C(=O)NCCc1ccccc1` (stereo partly drawn) stands inactive: -4.75%; under `Cc1nc2ccccc2n1CC(=O)NC1CCCCCC1`, inactive: 6.32%; under `O=C(Cn1cnc2c(OCc3ccccc3)ncnc21)NCCCn1ccnc1`, inactive: 20.4%. In the case of `CCSc1nc2ccccc2n1CC(=O)N1CCCCC1`, the inhibition was inactive: 15.1%.

On to `CNC(=O)Cc1nc2ccccc2n1CC(=O)Nc1cc(C)cc(C)c1`, for which the inhibition is inactive: 6.17%.

On to `N=c1n(CCN2CCOCC2)c2ccccc2n1CC(=O)c1cccc([N+](=O)[O-])c1`, for which the inhibition was inactive: -2.89%. On to `CC1CCN(C(=O)Oc2c(Cl)cc(Cl)c3cccnc23)CC1`, for which the inhibition is inactive: -25.8%.

On to `O=C1CC(C(=O)Nc2cccc(F)c2)n2c(nc3ccccc32)N1` (stereo not drawn), for which the inhibition was inactive: -1.39%. Under `CN(C)C(=O)OCCc1n(C)cc[n+]1C` stands inactive: 6.94%; under `O=C(Cn1cnc2c(OCc3ccccc3)ncnc21)NCCCN1CCCC1=O`, inactive: 13.9%.
